Laboratory results published in ChEMBL document CHEMBL2176915, “Phenyltetrahydroisoquinoline-pyridinaldoxime conjugates as efficient uncharged reactivators for the dephosphylation of inhibited human acetylcholinesterase” (2012).

The chains behind the UniProt entries cited, without tags or fusion partners. Where a name states a change or a piece, a line headed by the entry shows the natural chain unless it says otherwise.
UniProt P22303: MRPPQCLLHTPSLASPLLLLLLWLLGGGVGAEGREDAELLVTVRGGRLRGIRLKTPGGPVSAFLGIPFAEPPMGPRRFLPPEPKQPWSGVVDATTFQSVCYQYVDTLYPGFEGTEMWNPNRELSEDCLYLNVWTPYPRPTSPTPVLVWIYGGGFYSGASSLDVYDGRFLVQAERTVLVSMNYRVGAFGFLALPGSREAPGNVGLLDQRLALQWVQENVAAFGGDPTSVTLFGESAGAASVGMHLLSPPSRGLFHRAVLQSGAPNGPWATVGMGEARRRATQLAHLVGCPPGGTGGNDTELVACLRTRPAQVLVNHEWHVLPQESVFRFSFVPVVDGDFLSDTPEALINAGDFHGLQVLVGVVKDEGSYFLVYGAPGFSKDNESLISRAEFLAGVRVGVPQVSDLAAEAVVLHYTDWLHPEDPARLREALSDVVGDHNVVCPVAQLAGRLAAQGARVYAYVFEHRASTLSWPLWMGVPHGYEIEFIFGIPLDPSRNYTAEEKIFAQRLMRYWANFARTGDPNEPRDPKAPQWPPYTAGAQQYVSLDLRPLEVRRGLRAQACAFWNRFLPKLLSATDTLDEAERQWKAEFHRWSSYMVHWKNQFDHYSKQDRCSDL

How the values were obtained:
[1] = biological target: Acetylcholinesterase (Homo sapiens) (UniProt P22303); experiment: Reactivation of VX-inhibited human AChE assessed as reactivation rate constant
[2] = biological target: Acetylcholinesterase (Homo sapiens) (UniProt P22303); experiment: Reactivation of VX-inhibited human AChE assessed as bimolecular reactivation rate constant
[3] = biological target: Acetylcholinesterase (Homo sapiens) (UniProt P22303); experiment: Reactivation of tabun-inhibited human AChE assessed as reactivation rate constant
[4] = biological target: Acetylcholinesterase (Homo sapiens) (UniProt P22303); experiment: Reactivation of paraoxon-inhibited human AChE assessed as reactivation rate constant
[5] = biological target: Acetylcholinesterase (Homo sapiens) (UniProt P22303); experiment: Reactivation of tabun-inhibited human AChE assessed as bimolecular reactivation rate constant
[6] = biological target: Acetylcholinesterase (Homo sapiens) (UniProt P22303); experiment: Reactivation of paraoxon-inhibited human AChE assessed as bimolecular reactivation rate constant

SMILES | Activity [1] [min⁻¹] | Activity [2] [mM⁻¹ min⁻¹] | Activity [3] [min⁻¹] | Activity [4] [min⁻¹] | Activity [5] [mM⁻¹ min⁻¹] | Activity [6] [mM⁻¹ min⁻¹]
COc1cc2c(cc1OC)C(c1ccccc1)N(CCCCc1cnc(/C=N/O)c(O)c1)CC2 (stereo not given) | 0.1 | 1.3 |  |  |  | 
COc1cc2c(cc1OC)C(c1ccccc1)N(CCCCCc1cnc(/C=N/O)c(O)c1)CC2 (stereo not given) |  | 0.2 |  |  |  | 
COc1cc2c(cc1OC)C(c1ccccc1)N(CCCc1ccc(O)c(/C=N/O)n1)CC2 (stereo not given) | 0.45 | 3.8 | 0.0034 | 0.6 | 0.5 | 3
COc1cc2c(cc1OC)C(c1ccccc1)N(CCCCCc1ccnc(/C=N/O)c1O)CC2 (stereo not given) | 0.28 | 2.4 | 0.08 | 0.27 | 1 | 6.8
COc1cc2c(cc1OC)C(c1ccccc1)N(CCCCc1ccc(O)c(/C=N/O)n1)CC2 (stereo not given) | 0.68 | 20 | 0.045 | 1.17 | 1.7 | 19
COc1cc2c(cc1OC)C(c1ccccc1)N(CCCCCCc1ccc(O)c(/C=N/O)n1)CC2 (stereo not given) | 0.29 | 7.6 | 0.021 | 0.168 | 1.5 | 11
COc1cc2c(cc1OC)C(c1ccccc1)N(CCCCCc1ccc(O)c(/C=N/O)n1)CC2 (stereo not given) | 0.35 | 58 | 0.015 | 0.4 | 2.7 | 13
COc1cc2c(cc1OC)C(c1ccccc1)N(CCCCc1ccnc(/C=N/O)c1O)CC2 (stereo not given) | 0.31 | 0.9 |  | 0.095 |  | 2.5
COc1cc2c(cc1OC)C(c1ccccc1)N(CCOCCCc1ccc(O)c(/C=N/O)n1)CC2 (stereo not given) |  | 3 | 0.006 |  | 1.5 | 
COc1cc2c(cc1OC)C(c1ccccc1)N(CCCCCCc1cc(C)nc(/C=N/O)c1O)CC2 (stereo not given) | 0.037 | 0.5 | 0.028 |  | 0.5 | 
COc1cc2c(cc1OC)C(c1ccccc1)N(CCCc1ccnc(/C=N/O)c1O)CC2 (stereo not given) |  | 0.8 |  |  |  | 
